Reference: patent US20230263863A1, “COMPOSITIONS HAVING NEUROREGENERATIVE APPLICATIONS” (GRIFOLS WORLDWIDE OPERATIONS LIMITED, priority 2020, published 2023)

System: SH-SY5Y cells
Assay: Neurite outgrowth (Outgrowth Fold Change) in undifferentiated SH-SY5Y cells
Assay type: cell-based, human
Conditions: all proteins 0.2 mg/mL
Method: Undifferentiated SH-SY5Y cells were seeded into 96 well clear bottom plates in media containing 0.1% FBS. A serum-free base media was utilized as recommended by the supplier for SH-SY5Y cells (Sigma, Cat #94030304-1VL). Twenty-four hours after seeding cells, a 3× stock solution of ApoTf, final concentrations indicated on the x-axis, in serum free base media was added to the cells. ApoTf was obtained and purified from pooled human plasma and dosed at a final concentration of 0.2 mg/mL. Cells were allowed to differentiate for 6 days. Neurite growth was assessed by imaging and image analysis. At the time of analysis, a 10× solution of Tubulin Tracker (Molecular Probes, T34075) and Hoechst 33342 (Molecular Probes #H3570) nuclear stain was prepared.
Briefly, Tubulin Tracker dissolved in DMSO was diluted 1:1 with Pluronic F-127 and further diluted into HBSS to generate a 10× solution. Hoechst 33342 was added to the HBSS-Tubulin Tracker solution at 10 μg/mL to generate a 10× nuclear stain. […]
After obtaining images, the MetaExpress Neurite Outgrowth analysis module (Molecular Devices) was used to identify cells, cell bodies, and quantify neurites. […] The Outgrowth Fold Change was determined by setting the untreated control cells to a value of 1 with all other treatments shown relative to untreated control.

Substance | neurogenesis / differentiation (neurite outgrowth) (FIG. 3B) | neurogenesis / differentiation (neurite outgrowth) (FIG. 4)
pdHSA: plasma-derived human serum albumin [reference compound] | did not affect neurogenesis | –
rHSA: low-affinity iron binding form of human serum albumin, from Albumedix [reference compound] | – | neither bovine serum albumin (BSA) nor a low-affinity iron binding form of human serum albumin affected neurogenesis
